According to a melting point compilation (Tetko et al.; mined from patent text by program, amines drawn as free bases though some values may be those of a salt):

SMILES | melting point
CCc1ccc2c(c1)C=C(C(=O)O)C(C(F)(F)F)O2 (configuration not stated) | 145 to 149 °C
Clc1ccccc1N1CCNCC1 | 213 to 214 °C
